The values that follow come from PMC8291485, “Development of New Benzylpiperazine Derivatives as σ1 Receptor Ligands with in Vivo Antinociceptive and Anti-Allodynic Effects” (ACS Chemical Neuroscience, 2021).

This data set deals with evoked locomotor activity. Put plainly: Rotarod assay of evoked locomotor activity / sedation. Conditions: C57BL/6J mice; 15 30 and 60 mg/kg i.p., U50,488 10 mg/kg i.p. (up to 60 min after administration). Background: Falling from the rotarod earlier than controls is read as motor impairment.

In the case of “trans-(±)-3,4-dichloro-N-methyl-N-[2-(1-pyrrolidinyl)cyclohexyl]benzeneacetamide hydrochloride”, the “effect on evoked locomotor activity, rotarod (result in words)” value is listed as “significantly impaired evoked locomotor activity”.
